The results in this text go back to ChEMBL document CHEMBL5726154, “Substituted heterocyclic derivative, preparation method and use thereof” (2019).

The experiment addresses T1, N-acylethanolamine-hydrolyzing acid amidase (Homo sapiens, UniProt Q02083).
T1 sequence (Q02083 whole entry): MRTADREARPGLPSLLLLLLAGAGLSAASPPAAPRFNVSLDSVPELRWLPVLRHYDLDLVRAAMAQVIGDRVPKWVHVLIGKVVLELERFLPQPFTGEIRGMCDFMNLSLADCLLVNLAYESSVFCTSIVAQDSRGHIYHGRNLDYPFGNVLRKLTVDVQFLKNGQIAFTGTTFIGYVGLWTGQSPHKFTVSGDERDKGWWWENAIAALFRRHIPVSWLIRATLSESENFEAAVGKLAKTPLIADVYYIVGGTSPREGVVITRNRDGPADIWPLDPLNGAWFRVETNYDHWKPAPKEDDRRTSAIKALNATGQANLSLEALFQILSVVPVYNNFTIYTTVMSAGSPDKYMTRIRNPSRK
As to the kind of experiment: Determining Endocannabinoid Hydrolase Activity: In the Experimental example, endocannabinoid hydrolases used were Fatty Acid Amide Hydrolase (FAAH) and N-acylethanolamide hydrolyzing acid amidase (NAAA), which were prepared by the method described in the document (PMCID: PMC3423427, PMC3723234, PMC2692831, PMC3382457). The preparation method was as followed: a plasmid (pCDNA3.1/NAAA or pCDNA3.1/FAAH) carrying a whole NAAA/FAAH gene was constructed, wherein the plasmid carried Cytomegalovirus (CMV) promoter and Neomycin selectable gene; the plasmid was transformed into HEK-293 cell via lipid medium, stable cell lines expressing NAAA/FAAH at a high level were obtained by G418 screening and Western-blot method. HEK-293 recombinant cells were cultured and collected, washed with PBS for 2-3 times, and ultrasonically treated in 20 mM Tris-HCl containing 0.32 M sucrose, then repeatedly frozen and thawed twice, and then centrifuged at 4° C., 800 g for 15 min. The supernatant (i.e., the desired protein) was collected, the protein concentration was determined by BCA method, and the protein was diluted to a concentration of 1 mg/mL, and sub-packaged and stored in a refrigerator at −80° C. for further use.In the Experimental example, PBS solution used was prepared as followed: 8 g NaCl, 0.2 g KCl, 1.44 g Na2HPO4, and 0.24 g KH2PO4 were dissolved in 1 L ultrapure water, and the resultant solution was subjected to moist heat sterilization and stored at 4° C.30 μL (1 mg/mL) endocannabinoid hydrolase was added to a sample vial, and 2 μL DMSO (Blank control group) or a different concentration of a test compound (Compounds 1-46 prepared in the Examples according to the invention) was further added. The reaction was carried out at 37° C. for 10 min. 170 μL buffer (the buffer consisted of 50 mM disodium Hydrogen Phosphate, 0.1% Triton X-100, 3 mM DTT, 150 μL) containing enzymatic hydrolysis substrate (the substrate was a heptadecenoyl ethanolamine containing a double bond and 17 carbon atoms, abbreviated as 17:1 FAE) was further added, wherein the concentration of 17:1 FAE was 5 μM. The reaction was carried out at 37° C. for 30 min, and 200 μL methanol solution containing internal standard (the internal standard was margaric acid, at a concentration of 1 nmol) was then added to stop the reaction. LC-MS was used to determine the yield of the hydrolysate 17:1 FA (i.e., a heptadecenoic acid containing a double bond) of 17:1 FAE, then a graph was plotted with Graphpad Prism 5. Thereby, the IC50 of the test compound on endocannabinoid hydrolase was determined.By the method above, the inhibitory effects of the Compounds 1-46 prepared in the invention on NAAA and FAAH were determined.
As usually defined, the IC50 is the midpoint of a concentration-inhibition curve. In the case of `O=C(Cc1ccc(-c2ccccc2)cc1)N1CCOC1=O`, the IC50 came to 55 µM. `O=C(CCCCCn1ccc(=O)[nH]c1=O)N1CCOC1=O`: the IC50 is 15.8 µM.

`O=C(Cc1cccc(-c2ccccc2)c1)N1CCOC1=O`: the IC50 was 79.2 µM. The result for `O=C(CCCCCc1ccc(O)c(O)c1)N1CCOC1=O` reads 0.027 µM; that for `O=C(Cc1cccc(OCc2ccccc2)c1)N1CCOC1=O`, 65.3 µM.
